Values quoted from earlier work as cited in patent US20210196676A1, “TREATMENT OF VIRAL INFECTIONS AND VIRALLY ASSOCIATED LESIONS WITH SEQUITERPENE LACTONES” (The Board of Regents of the University of Texas System, priority 2018, published 2021).

Settings: in vivo; cited from earlier work

C=C1C(=O)O[C@@H]2C[C@@H](C)[C@@H]3C=CC(=O)[C@@]3(C)[C@@H](O)[C@H]12 (racemic) [H. tox, (±)-4-Hydroxy-4a,8-dimethyl-3,3a,4a,7a,8,9,9a-octahydroazuleno[6,5-b]furan-2,5-dione]
oral LD50: 85 to 150 mg/kg
